Values of other authors in US11633458B2, “Compositions and methods for treating melanoma” (University of Virginia Patent Foundation, priority 2013, dated 2023).

Test system: pancreatic cancer
Details: phase I/II clinical trials, intratumoral; cited from earlier work

macrophage-activating lipopeptide 2 [MALP-2]
dose administered intratumorally safely: up to 20 μg
